Source: patent US4599337A, “Antiphlogistic/antipyretic/analgesic agents containing theobromine or theophylline derivatives as active ingredient” (Eisai Co., Ltd., priority 1985, dated 1986)

What was measured:
[1] = Acute toxicity in rats; design: species or system rat (SD male); conditions: rat, in vivo, po; Table 4, rats
Method: (§1) The acute toxicity of the compounds of the invention was examined using ddy male mice and SD male rats, and the 50% lethal dose (LD50) was determined. Ten mice were used for each dose and morality was determined for 3 days after administration of each test compound of the invention. In the case of the rats, 5 rats were used for each dose and morality was determined 7 days after administrations.

[2] = Acute toxicity in mice; design: species or system mouse (ddy male); conditions: mouse, in vivo, po; Table 3, mice
Method: as §1

SMILES: Cn1cnc2c1c(=O)n(CCCN1CCN(c3ccc(Cl)c(Cl)c3)CC1)c(=O)n2C [Compound A', 1-(3-(4-(3,4-dichlorophenyl)piperazinyl-(1))-n-propyl)theobromine]
- LD50 at 168 h [1]: ≥ 2000 mg/kg
- LD50 at 72 h [2]: > 800 mg/kg
